Measured values reported in patent US4134989A, “Guaiacol p-isobutyl hydratropate” (Aziende Chimiche Riunite Angelini Francesco A.C.R.A.F. …, priority 1976, dated 1979).

Tested on: rats
Conditions: by gavage

**Q.** How did the “acute toxicity compared with ibuprofen” value turn out when `COc1ccccc1OC(=O)C(C)c1ccc(CC(C)C)cc1` (stereo not shown) [GIH, guaiacol p-isobutyl hydratropate] was run?
**A.** definitely less toxic than ibuprofen
